Assay results reported in patent US4789667A, “External pharmaceutical composition and methods of use” (priority 1984, dated 1988).

Assay: Drug diffusion through egg shell membrane in diffusion cell with dodecyl L-pyroglutamate
Conditions: control without enhancer = 100; drug 0.05%, dodecyl L-pyroglutamate 1.0% in donor side, 37° C

O=[N+]([O-])O[C@H]1CO[C@H]2[C@@H]1OC[C@H]2O[N+](=O)[O-]
Relative amount of permeation after 30 minutes: 119
